The record followed here is patent publication US8383617B2, “Treatment of protein aggregation diseases” (priority 2007, dated 2013).

Amino acid sequences for entries named in this document (tags omitted). Residues count along the entry.
UniProt P05067, 672-711: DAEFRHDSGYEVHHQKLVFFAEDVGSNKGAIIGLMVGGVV

The target in this test is aggregated beta-amyloid peptide (Homo sapiens, UniProt P05067). The note with it: peptide aggregated three days at 37° C., then incubated overnight with compound, FIG. 4.

SMILES strings stand for the structures.

Regarding `CC(CN(C)C)CN1c2ccccc2CCc2ccccc21` (stereo not shown) [Trimipramine, trimipramine], the “disaggregation of preformed amyloid aggregates by PAGE” value is on record as “did not have a disaggregation function”.
